Here are results for one substance from patent EP4810521A1, “ANTI-EGFR AND -HER3 BISPECIFIC ANTIBODY-DRUG CONJUGATE AND USE THEREOF” (priority 2023, dated 2025).

For experiment [1], the system named is human breast cancer cells MCF7. Description: In vitro cell killing assay (CTG). Type of experiment: cell-based. Particulars: MCF7, 5 days. On the procedure:
After 2-3 passages of the resurrected MCF7 cells, the culture medium was poured out firstly, rinsed with 10 mL PBS once, then the cells were digested with 4mL trypsin, the culture medium was terminated before centrifuged at 400xg for 3min, the supernatant was discarded, and the culture medium was further resuspended for counting. The cell density was adjusted to 3E4/mL, 50 µL of which per well was added into a round bottom low adsorption 96-well plate. The antibody to be detected was diluted in a gradient manner, then 50 µL of which per well was added into the corresponding cells, cultured at 37 °C for 5 days, then the 96-well plate was taken out, the plate was balanced to room temperature, 100 µL of CTG detection solution was added into each well, placed at a shaker at 300 rpm for 20 min, 100 µL of which was absorbed and placed into the white bottom 96-well plate, and the luminescence value was detected by using a multifunctional microplate reader.

The test system of experiment [2] is human breast cancer cells MDA-MB-453. The experiment is described as follows: In vitro cell killing assay (CTG). Type of experiment: cell-based. Particulars: MDA-MB-453, 5 days, Example 14.
The target of a further experiment is human EGFR (Homo sapiens, UniProt P00533). The experiment is described as follows: ELISA detection of affinity. The class given is binding. As to conditions: EGFR antigen coated 0.25 µg/mL. On the procedure:
(§1) A 96-well enzyme label plate was coated one day in advance, EGFR or HER3 antigen was diluted to 0.25 µg/mL by using coating solution, then 100 µL of which was added into each well, the plate was sealed by a plate film, and placed at 4 °C overnight; the pre-coating solution in the 96-well enzyme label plate was poured out, patted dry on absorbent paper, 230 µL of washing solution was added into each well, and washed for 3 times repeatedly after patting dry the washing solution; 200 µL of blocking solution was added into each well by the multichannel pipette gun, the plate was sealed by a microplate sealer, blocked at 37 °C for 2h, then the plate was washed; the sample to be detected was diluted at the maximum concentration of 100 nM and a ratio of 1:4 into 12 wells, and then 100 µL of dilutions was added into each well, incubated at room temperature for 2 hours in the dark, the plate was washed, 100µL of Goat anti-Human IgG Fc-HRP diluting at 1:80000 was added into each well, incubated at room temperature for 1 hour in the dark, and the plate was washed; 100 µL of TMB substrate was added into a 96-well enzyme label plate, developed for 2-5 minutes at room temperature in a dark, then 50 µL of ELISA stop solution was added into each well, and the values of OD450nm and OD620nm were read within 30 minutes.
A general note: In an ELISA, binding on a coated surface is turned into a signal by an enzyme label.

Another experiment addresses human HER3 (Homo sapiens, UniProt P21860). Description: ELISA detection of affinity. Type of experiment: binding. How it is done:
as §1

Experiment [3] concerns H508 tumor-bearing mouse model. The experiment is described as follows: Anti-tumor effect in H508 tumor-bearing mouse model. As to conditions: H508, 10 mg/kg QWx2 intraperitoneal injection, day 55. The class given is in vivo, BALB/c NUDE mice. The text has this:
In the present experiment, the BALB/c NUDE mice inoculated with H508 cells were used for determining the anti-tumor effect of the EGFR/HER3-ADCs.
The female BALB/c NUDE background mice were purchased from Beijing Vital River Laboratory Animal Technology Co., Ltd, with the grade of SPF, the quality control department is Beijing Vital River Laboratory Animal Technology Co., Ltd, and the certificate number was NO. 110011230103807467. The mice were domesticated for 3 days after arrival, and then the study began.
H508 cells were purchased from Nanjing Cobioer (CAT#: CBP60795) and routinely subcultured in strict accordance with the instructions for subsequent in vivo experiments. […]
Tumor volume of each mouse was measured 37 days after tumor cell inoculation, the mice with tumor volumes between about 120-140 mm^3 were selected and grouped on average according to their tumor volume (6 mice per group). […] Administrations were conducted on day 37 and day 44 after inoculation respectively, and the tumor volume and body weight of mice were monitored twice a week. […] Measurement of tumor volume: the maximum long axis (L) and maximum wide axis (W) of the tumor were measured using a vernier caliper, and the tumor volume was calculated as follows: V=L×W^2/2. Body weight was measured using an electronic balance. […]

Experiment [4] has as its system NUGC-4 tumor-bearing mouse model. The experiment is described as follows: Anti-tumor effect in NUGC-4 tumor-bearing mouse model. Type of experiment: in vivo, BALB/c-NUDE mice. Particulars: NUGC-4, 10 mg/kg single dose intraperitoneal injection, day 32. The text has this:
In the present experiment, the BALB/c NUDE mice inoculated with NUGC-4 cells were used for determining the anti-tumor effect of the EGFR/HER3-ADCs.
The female BALB/c-NUDE mice were purchased from Beijing Vital River Laboratory Animal Technology Co., Ltd, with the grade of SPF, the quality control department is Beijing Vital River Laboratory Animal Technology Co., Ltd, and the certificate number was NO.110011230103807533. The mice were domesticated for 3 days after arrival, and then the study began.
NUGC-4 cells were purchased from NIBIOHN (CAT #: JCRB0834) and routinely subcultured in strict accordance with the instructions for subsequent in vivo experiments. […]
Tumor volume of each mouse was measured 13 days after tumor cell inoculation, the mice with tumor volumes about 200 mm^3 were selected and grouped on average according to their tumor volume (7 mice per group). […] Administrations were conducted on day 13 after inoculation respectively, and the tumor volume and body weight of mice were monitored twice a week. Body weight and tumor volume were measured before each dose, and the relative tumor growth inhibition (TGI%) was calculated on day 32 after inoculation, the calculating formula was as follows: TGI% =100% * (tumor volume of control group - tumor volume of treatment group)/ (tumor volume of control group - tumor volume of control group before administration). […]

The test system of experiment [5] is SW620 tumor-bearing mouse model. The experiment is described as follows: Anti-tumor effect in SW620 tumor-bearing mouse model. Type of experiment: in vivo, BALB/c-NUDE mice. As to conditions: SW620, 10 mg/kg QWx3 intraperitoneal injection, day 42. The text has this: In the present experiment, the BALB/c NUDE mice inoculated with SW620 cells were used for determining the anti-tumor effect of the EGFR/HER3-ADCs.
The female BALB/c-NUDE mice were purchased from Beijing Vital River Laboratory Animal Technology Co., Ltd, with the grade of SPF, the quality control department is Beijing Vital River Laboratory Animal Technology Co., Ltd, and the certificate number was 20230614Abzz0619000190. The mice were domesticated for 3 days after arrival, and then the study began.
SW620 cells were obtained Nanjing Cobioer Biotechnology Co., Ltd. The cells were collected by centrifugation, resuspended in sterile PBS and adjusted to a cell density of 10×10^6 cells/ml. […]
(§2) Tumor volume of each mouse was measured 14 days after tumor cell inoculation, the mice with tumor volumes about 200 mm^3 were selected and grouped on average according to their tumor volume (7 mice per group). […] Administrations were conducted on day 14, 21 and 28 after inoculation respectively, and tumor volume and body weight of mice were monitored twice a week. […] Measurement of tumor volume: the maximum long axis (L) and maximum wide axis (W) of the tumor were measured using a vernier caliper, and the tumor volume was calculated as follows: V=L×W^2/2. Body weight was measured using an electronic balance. […]

Experiment [6] relates to ASPC1 tumor-bearing mouse model. The experiment is described as follows: Anti-tumor effect in ASPC1 tumor-bearing mouse model. Type of experiment: in vivo, BALB/c-NUDE mice. Particulars: ASPC1, 10 mg/kg QWx3 intraperitoneal injection, day 28. The text has this: In the present experiment, the BALB/c NUDE mice inoculated with ASPC1 cells were used for determining the anti-tumor effect of the EGFR/HER3-ADCs.
The female BALB/c-NUDE mice were purchased from Beijing Vital River Laboratory Animal Technology Co., Ltd, with the grade of SPF, the quality control department is Beijing Vital River Laboratory Animal Technology Co., Ltd, and the certificate number was 20230531Abzz0619000787. The mice purchased from Vital River laboratory mice were domesticated for 3 days after arrival, and then the study began. […]
Tumor volume of each mouse was measured 7 days after tumor cell inoculation, the mice with tumor volumes about 200 mm^3 were selected and grouped on average according to their tumor volume (7 mice per group). […] Administrations were conducted on day 7, 14 and 21 after inoculation respectively, and the tumor volume and body weight of mice were monitored twice a week. Body weight and tumor volume were measured before each dose, and the relative tumor growth inhibition (TGI%) was calculated on day 28 after inoculation, the calculating formula was as follows: TGI% =100% * (tumor volume of control group - tumor volume of treatment group)/ (tumor volume of control group - tumor volume of control group before administration). […] Body weight was measured using an electronic balance. […]

In experiment [7] the test system is NCI-H1568 tumor-bearing mouse model. Description: Anti-tumor effect in NCI-H1568 tumor-bearing mouse model. Type of experiment: in vivo, BALB/c-NUDE mice. As to conditions: NCI-H1568, 10 mg/kg QWx3 intraperitoneal injection, day 30.
Text: In the present experiment, the BALB/c NUDE mice inoculated with NCI-H1568 cells were used for determining the anti-tumor effect of the EGFR/HER3-ADCs.
The female BALB/c-NUDE mice were purchased from Beijing Vital River Laboratory Animal Technology Co., Ltd, with the grade of SPF, the quality control department is Beijing Vital River Laboratory Animal Technology Co., Ltd, and the certificate number was NO. 110011230103807467. The mice were domesticated for 3 days after arrival, and then the study began.
NCI-H1568 cells were purchased from Nanjing Cobioer Biotechnology Co., Ltd. and routinely subcultured in strict accordance with the instructions for subsequent in vivo experiments. […]
as §2, with “11” for “14”, “11, 18” for “14, 21”, “27” for “28”

As for SIB001-DXd [reference compound], the values for the IC50 in experiment [1] and in experiment [2] were 13.2 nM and 9.36 nM, respectively. In the experiment with human EGFR, the Kd (as a rule, a measure of binding affinity in units of concentration) was found to be 0.0883 nM. For the same substance, the “binding to HER3” value with human HER3 is listed as “weak binding to HER3”. For the same substance, the TGI is 155% in experiment [3]; 70% in [4]; 39% in experiment [5]; 67% in experiment [6]; 61% in [7]. Moreover, the Tumor volume in experiment [3] came to 30 mm^3; in experiment [4], 457 mm^3; in experiment [5] it was 1235 mm^3; in experiment [6] it was 347 mm^3; in [7] it was 480 mm^3.
